Consider one compound from patent publication US20240065998A1, “MONOACYLGLYCEROL AND FREE FATTY ACID-BASED COMPOSITIONS, METHODS OF MANUFACTURING AND USE OF THE SAME” (priority 2021, published 2024).

The subject of the assay is Influenza A(H1N1)pdm09 (California/07/09). Particulars: Table 58B, 70%, 2 min, 37 ± 2° C.; VC titer 5.7.

`CCO` [Ethanol] gave an LRV above 5.0.
